This note sets out measurements from ChEMBL document CHEMBL3991601, “The target landscape of clinical kinase drugs” (Science, 2017).

Amino acid sequences for entries named in this document (tags omitted). A change or cut given only in a name is not applied to a line headed by its entry.
UniProt Q9NSY1, whole entry: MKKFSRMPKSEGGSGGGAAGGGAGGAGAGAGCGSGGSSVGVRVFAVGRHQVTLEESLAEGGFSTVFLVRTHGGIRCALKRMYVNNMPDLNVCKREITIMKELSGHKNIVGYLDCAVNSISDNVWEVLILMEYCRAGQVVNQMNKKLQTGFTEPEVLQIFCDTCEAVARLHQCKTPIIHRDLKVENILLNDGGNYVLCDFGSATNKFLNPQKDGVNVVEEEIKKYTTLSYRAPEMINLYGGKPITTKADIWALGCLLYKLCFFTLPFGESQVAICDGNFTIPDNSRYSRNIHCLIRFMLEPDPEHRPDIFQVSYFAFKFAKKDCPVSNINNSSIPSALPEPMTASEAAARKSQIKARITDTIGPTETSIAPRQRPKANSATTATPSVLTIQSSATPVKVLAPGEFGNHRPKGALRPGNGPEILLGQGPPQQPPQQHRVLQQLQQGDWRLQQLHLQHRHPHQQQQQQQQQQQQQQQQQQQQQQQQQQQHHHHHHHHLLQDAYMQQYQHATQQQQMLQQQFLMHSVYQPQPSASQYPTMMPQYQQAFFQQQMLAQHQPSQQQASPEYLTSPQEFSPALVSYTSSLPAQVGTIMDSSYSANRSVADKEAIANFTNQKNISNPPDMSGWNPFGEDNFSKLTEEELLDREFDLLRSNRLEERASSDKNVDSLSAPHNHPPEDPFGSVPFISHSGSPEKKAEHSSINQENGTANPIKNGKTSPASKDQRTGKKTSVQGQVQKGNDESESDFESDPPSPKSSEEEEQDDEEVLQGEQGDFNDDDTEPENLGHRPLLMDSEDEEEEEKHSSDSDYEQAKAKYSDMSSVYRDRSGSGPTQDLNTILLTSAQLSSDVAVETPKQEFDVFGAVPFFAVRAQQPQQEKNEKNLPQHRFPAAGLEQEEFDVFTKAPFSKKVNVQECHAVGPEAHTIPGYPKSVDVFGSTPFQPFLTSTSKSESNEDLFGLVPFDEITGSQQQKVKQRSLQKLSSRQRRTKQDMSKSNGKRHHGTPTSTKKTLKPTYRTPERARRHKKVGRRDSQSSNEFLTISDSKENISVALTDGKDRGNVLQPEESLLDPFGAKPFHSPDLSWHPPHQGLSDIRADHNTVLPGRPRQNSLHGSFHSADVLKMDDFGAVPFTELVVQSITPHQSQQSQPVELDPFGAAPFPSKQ
UniProt P29597: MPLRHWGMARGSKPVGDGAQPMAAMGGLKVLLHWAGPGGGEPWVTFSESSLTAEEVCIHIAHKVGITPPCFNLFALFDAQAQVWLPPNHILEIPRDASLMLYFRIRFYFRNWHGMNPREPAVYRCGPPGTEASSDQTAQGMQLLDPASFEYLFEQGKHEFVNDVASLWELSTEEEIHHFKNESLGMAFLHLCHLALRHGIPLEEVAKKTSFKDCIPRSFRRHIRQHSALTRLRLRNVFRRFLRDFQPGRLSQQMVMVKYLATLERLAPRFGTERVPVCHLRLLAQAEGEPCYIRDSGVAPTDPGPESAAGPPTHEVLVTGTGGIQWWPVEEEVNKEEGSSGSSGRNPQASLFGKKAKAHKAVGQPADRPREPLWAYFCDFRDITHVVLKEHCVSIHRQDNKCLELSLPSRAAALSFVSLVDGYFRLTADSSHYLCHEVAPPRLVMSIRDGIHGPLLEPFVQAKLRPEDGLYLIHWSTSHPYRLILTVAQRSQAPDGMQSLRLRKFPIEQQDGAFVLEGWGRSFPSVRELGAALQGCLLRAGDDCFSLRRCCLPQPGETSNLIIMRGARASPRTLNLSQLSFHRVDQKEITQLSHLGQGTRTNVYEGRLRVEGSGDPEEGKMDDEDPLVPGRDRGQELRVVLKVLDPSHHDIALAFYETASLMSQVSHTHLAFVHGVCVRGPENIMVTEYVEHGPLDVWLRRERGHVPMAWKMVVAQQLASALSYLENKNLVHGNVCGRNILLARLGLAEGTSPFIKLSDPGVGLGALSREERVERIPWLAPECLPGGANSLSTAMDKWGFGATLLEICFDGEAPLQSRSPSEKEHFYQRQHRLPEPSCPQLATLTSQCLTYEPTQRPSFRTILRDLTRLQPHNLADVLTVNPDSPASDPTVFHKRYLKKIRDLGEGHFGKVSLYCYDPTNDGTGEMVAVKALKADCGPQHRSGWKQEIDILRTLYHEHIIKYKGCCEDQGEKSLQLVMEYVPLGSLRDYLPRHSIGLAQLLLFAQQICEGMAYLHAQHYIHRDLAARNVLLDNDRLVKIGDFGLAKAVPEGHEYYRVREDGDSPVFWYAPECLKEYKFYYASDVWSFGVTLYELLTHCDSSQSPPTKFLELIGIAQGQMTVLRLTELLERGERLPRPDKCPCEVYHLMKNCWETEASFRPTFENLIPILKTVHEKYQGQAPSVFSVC
UniProt Q15746, whole entry: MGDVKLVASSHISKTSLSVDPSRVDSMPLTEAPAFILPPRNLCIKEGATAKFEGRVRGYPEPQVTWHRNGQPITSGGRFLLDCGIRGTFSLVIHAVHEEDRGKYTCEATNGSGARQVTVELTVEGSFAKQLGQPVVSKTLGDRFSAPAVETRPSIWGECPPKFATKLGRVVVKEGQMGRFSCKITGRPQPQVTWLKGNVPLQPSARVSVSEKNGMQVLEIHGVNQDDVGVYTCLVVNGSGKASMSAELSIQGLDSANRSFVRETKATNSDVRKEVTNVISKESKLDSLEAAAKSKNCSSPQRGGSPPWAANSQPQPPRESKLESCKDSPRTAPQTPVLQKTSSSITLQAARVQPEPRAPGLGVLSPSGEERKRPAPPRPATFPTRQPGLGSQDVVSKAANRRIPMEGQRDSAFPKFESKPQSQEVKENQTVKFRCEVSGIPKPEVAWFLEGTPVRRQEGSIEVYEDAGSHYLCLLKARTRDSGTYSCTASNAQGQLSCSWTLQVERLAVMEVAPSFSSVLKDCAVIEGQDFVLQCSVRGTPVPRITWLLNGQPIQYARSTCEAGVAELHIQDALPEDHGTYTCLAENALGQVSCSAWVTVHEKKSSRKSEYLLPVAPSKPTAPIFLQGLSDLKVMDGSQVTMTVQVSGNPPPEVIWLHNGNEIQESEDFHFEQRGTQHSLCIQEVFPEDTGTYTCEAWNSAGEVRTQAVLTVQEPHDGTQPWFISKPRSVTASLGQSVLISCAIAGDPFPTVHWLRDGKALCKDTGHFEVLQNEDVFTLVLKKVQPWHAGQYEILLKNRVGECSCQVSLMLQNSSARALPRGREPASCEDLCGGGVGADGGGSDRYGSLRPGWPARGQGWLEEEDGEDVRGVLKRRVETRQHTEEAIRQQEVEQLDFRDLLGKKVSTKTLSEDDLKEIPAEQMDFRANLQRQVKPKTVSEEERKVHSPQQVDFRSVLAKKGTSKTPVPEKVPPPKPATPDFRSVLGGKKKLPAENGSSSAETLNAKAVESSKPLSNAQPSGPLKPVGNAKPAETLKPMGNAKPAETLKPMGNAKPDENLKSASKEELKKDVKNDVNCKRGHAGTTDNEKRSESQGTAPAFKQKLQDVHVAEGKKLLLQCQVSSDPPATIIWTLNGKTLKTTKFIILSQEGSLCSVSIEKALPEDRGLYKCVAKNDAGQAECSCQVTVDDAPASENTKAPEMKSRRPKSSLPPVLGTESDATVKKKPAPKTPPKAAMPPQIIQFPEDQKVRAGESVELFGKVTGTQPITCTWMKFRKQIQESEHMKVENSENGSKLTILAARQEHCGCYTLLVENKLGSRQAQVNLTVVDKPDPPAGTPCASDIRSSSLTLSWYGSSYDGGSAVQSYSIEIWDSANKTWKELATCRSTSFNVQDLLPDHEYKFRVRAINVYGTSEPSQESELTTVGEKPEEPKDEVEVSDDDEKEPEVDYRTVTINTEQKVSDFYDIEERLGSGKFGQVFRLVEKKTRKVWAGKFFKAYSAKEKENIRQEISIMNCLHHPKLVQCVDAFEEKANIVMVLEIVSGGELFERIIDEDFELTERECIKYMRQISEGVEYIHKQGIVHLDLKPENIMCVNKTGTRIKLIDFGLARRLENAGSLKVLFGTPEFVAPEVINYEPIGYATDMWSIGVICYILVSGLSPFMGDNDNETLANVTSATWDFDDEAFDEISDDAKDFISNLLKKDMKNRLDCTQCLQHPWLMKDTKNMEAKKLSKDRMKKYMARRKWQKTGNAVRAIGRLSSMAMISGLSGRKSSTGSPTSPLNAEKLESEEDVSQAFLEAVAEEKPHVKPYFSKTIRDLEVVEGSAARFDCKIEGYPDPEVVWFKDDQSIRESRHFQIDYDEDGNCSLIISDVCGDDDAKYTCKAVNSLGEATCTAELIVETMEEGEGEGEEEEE
UniProt P07949, whole entry: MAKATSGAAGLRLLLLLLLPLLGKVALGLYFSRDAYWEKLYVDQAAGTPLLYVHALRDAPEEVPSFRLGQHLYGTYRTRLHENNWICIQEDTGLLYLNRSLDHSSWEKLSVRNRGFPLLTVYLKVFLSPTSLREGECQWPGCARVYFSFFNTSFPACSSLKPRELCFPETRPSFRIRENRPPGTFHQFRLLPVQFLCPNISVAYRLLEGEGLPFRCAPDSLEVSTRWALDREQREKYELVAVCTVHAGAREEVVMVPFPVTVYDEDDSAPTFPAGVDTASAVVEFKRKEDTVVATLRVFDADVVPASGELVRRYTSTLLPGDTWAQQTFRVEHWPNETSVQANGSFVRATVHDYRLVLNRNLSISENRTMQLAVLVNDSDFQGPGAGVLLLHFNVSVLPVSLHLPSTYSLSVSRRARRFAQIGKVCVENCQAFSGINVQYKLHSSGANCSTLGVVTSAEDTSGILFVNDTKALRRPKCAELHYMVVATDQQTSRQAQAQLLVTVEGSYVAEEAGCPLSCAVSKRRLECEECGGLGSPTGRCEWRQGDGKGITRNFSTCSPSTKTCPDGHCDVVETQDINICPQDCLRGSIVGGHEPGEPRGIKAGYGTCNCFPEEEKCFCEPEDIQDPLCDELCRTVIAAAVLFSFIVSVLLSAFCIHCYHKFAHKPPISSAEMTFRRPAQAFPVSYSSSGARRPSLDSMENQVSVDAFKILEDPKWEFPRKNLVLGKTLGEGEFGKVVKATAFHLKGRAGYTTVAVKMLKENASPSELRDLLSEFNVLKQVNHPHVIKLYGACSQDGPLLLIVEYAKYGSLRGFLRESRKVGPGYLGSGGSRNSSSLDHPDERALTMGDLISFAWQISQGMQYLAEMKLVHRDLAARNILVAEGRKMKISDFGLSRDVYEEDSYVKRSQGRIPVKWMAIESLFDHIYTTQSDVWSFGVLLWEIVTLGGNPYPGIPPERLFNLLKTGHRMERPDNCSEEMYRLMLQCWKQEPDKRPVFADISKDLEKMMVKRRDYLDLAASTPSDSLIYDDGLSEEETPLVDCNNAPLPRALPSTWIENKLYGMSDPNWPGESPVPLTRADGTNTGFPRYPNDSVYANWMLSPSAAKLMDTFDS
UniProt P12931: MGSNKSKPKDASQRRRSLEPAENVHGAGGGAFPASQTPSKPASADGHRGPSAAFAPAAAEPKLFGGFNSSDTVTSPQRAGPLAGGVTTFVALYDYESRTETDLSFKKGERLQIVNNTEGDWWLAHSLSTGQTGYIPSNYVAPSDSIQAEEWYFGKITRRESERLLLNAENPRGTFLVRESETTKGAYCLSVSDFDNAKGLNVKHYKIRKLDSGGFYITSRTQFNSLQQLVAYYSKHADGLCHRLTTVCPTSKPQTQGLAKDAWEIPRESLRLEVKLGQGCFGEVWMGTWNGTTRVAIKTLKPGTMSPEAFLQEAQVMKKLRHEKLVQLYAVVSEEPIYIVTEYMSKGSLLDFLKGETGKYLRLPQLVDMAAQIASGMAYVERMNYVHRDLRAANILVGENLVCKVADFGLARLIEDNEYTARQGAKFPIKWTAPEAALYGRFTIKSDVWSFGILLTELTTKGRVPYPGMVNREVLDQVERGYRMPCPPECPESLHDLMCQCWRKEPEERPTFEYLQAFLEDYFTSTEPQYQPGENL

Activity calls are given as the source filed them. Rule as the data show it, for most assays here: actives have a measured Kd and inactives only a lower limit.

For orientation: Kd means the free concentration of one partner at which half of the binding sites on the other are occupied at equilibrium, for simple one-to-one binding.

Assay [1] has as its target BMP-2-inducible protein kinase (Homo sapiens, UniProt Q9NSY1).
The target of assay [2] is Protein kinase C alpha type (Homo sapiens, UniProt P17252).
The target in assay [3] is Non-receptor tyrosine-protein kinase TYK2 (Homo sapiens, UniProt P29597).
Assay [4] deals with Myosin light chain kinase, smooth muscle (Homo sapiens, UniProt Q15746).
Assay [5] concerns the target Proto-oncogene tyrosine-protein kinase receptor Ret (Homo sapiens, UniProt P07949).
Assay [6] addresses Proto-oncogene tyrosine-protein kinase Src (Homo sapiens, UniProt P12931).
Also: in the data inactive means no Kd found up to 30 µM.

As for `CCS(=O)(=O)N1CC(CC#N)(n2cc(-c3ncnc4[nH]ccc34)cn2)C1` [BARICITINIB], the Kd in assay [1] is active: 0.216 µM.

With `O=S(=O)(c1cccc2c(O)nccc12)N1CCCNCC1` [HYDROXYFASUDIL], the Kd in assay [2] was inactive: > 30 µM.

Turning to `O=C(Nc1nc2cccc(-c3ccc(CN4CCS(=O)(=O)CC4)cc3)n2n1)C1CC1` [FILGOTINIB], in assay [3], the Kd is inactive: > 30 µM.

`COC(=O)[C@@]1(O)C[C@H]2O[C@]1(C)n1c3ccccc3c3c4c(c5c6ccccc6n2c5c31)C(=O)NC4` [K-252A]: the Kd in assay [4] was inactive: > 30 µM.

For `CNC(=O)c1cc(Oc2ccc(NC(=O)Nc3ccc(Cl)c(C(F)(F)F)c3)c(F)c2)ccn1` [REGORAFENIB], in assay [5], the dissociation constant (Kd) is active: 0.126 µM.

As to `CC[C@@](C)(Nc1ccnc(-c2c[nH]c3ncccc23)n1)C(=O)NCC(F)(F)F` [DECERNOTINIB], the Kd in assay [3] is inactive: > 30 µM.

As to `O=C(Nc1c[nH]nc1-c1nc2cc(CN3CCOCC3)ccc2[nH]1)NC1CC1` [AT-9283], the equilibrium dissociation constant (Kd) in assay [6] was active: 0.592 µM.
